Assay results: paper PMC8245786, “Comparative Studies on Multi-Component Pharmacokinetics of Polygonum multiflorum Thunb Extract After Oral Administration in Different Rat Models” (Frontiers in Pharmacology, 2021)

Tests used:
Assay type in all cases: in vivo
Details in all cases: before administration of AE-PM
OCT1 = experiment: Expression level of OCT1 in rat liver (UHPLC-MS/MS signature peptide) and correlation with AUC
Description: (§1) The detection method for UGT1A1 and nine other transporter proteins in the liver was comprehensively investigated in our study (35).
(§2) The sequence of characteristic peptides that corresponded to UGT1A1 and the other nine transporter proteins were based on our previous experiments and listed in Table 3 .
(§3) Total membrane protein was isolated (in triplicate) from liver tissue samples according to the Native Membrane Protein Extraction Kit protocol. Subsequently, protein concentrations were determined by the BCA Protein Assay Kit. 10 µl of 5 mg/ml (or lower concentration) of a hepatocyte membrane protein incubated with 20 µl of dithiothreitol (100 mM) and 50 µl of ammonium bicarbonate buffer (50 mM, pH 7.8). After incubation at 95°C for 5 min, 20 µl of iodoacetamide (20 mM) was added to the mixture, followed by incubation at 37°C for 20 min in the dark. To concentrate the samples, ice-cold methanol (0.5 ml), chloroform (0.2 ml), and water (0.2 ml) were added. After centrifugation at 4°C for 5 min at 16,000 g, the supernatant was discarded and the pellet was washed once with ice-cold methanol (0.25 ml) and resuspended with 40 µl of reconstitution solution (equal volume of 3% sodium deoxycholate (w/v) and 5 mM ammonium bicarbonate buffer). Finally, the protein sample was digested with 10 µl of trypsin. The protein-to-trypsin ratio was 25:1 (w/w). […]

MDR1 = experiment: Expression level of MDR1 in rat liver (UHPLC-MS/MS signature peptide) and correlation with AUC
Description: as §1, §2, §3

UGT1A1 = experiment: Expression level of UGT1A1 in rat liver (UHPLC-MS/MS signature peptide) and correlation with AUC
Description: as §1, §2, §3

BSEP = experiment: Expression level of BSEP in rat liver (UHPLC-MS/MS signature peptide) and correlation with AUC
Description: as §1, §2, §3

MRP2 = experiment: Expression level of MRP2 in rat liver (UHPLC-MS/MS signature peptide) and correlation with AUC
Description: as §1, §2, §3

OATP1A4 = experiment: Expression level of OATP1A4 in rat liver (UHPLC-MS/MS signature peptide) and correlation with AUC
Description: as §1, §2, §3

OATP1A2 = experiment: Expression level of OATP1A2 in rat liver (UHPLC-MS/MS signature peptide) and correlation with AUC
Description: as §1, §2, §3

SMILES: S=C=Nc1cccc2ccccc12 [ANIT, alpha-naphthylisothiocyanate]
- Reduction of OCT1 expression level compared with the control group (OCT1): 62.92%
- Reduction of MDR1 expression level compared with the control group (MDR1): 72.37%
- Reduction of UGT1A1 expression level compared with the control group (UGT1A1): 38.22%
- Reduction of BSEP expression level compared with the control group (BSEP): 38.15%
- Reduction of MRP2 expression level compared with the control group (MRP2): 47.90%
- Reduction of OATP1A4 expression level compared with the control group (OATP1A4): 42.58%
- Reduction of OATP1A2 expression level compared with the control group (OATP1A2): 24.28%
